# Experiment: Open-label maximal use pharmacokinetic study, topical ALA under occlusion (first study)
# Details: topical to upper extremities compared with intravenous and oral dosing of about 100 mg ALA
structure (smiles),measurement,value
"Cl.NCC(=O)CCC(=O)O [ALA, 5-amino-4-oxopentanoic acid hydrochloride]",systemic exposure to ALA and PpIX,lower systemic exposure to ALA and PpIX than intravenous and oral dosing

# From US12296011B2, “Methods for photodynamic therapy” (Sun Pharmaceutical Industries, Inc., priority 2018, dated 2025)
